Measured values reported in US20260014184A1, “ADENOSINE DERIVATIVES FOR USE IN THE TREATMENT OF NEURODEGENERATIVE DISORDERS AND CANCER” (UNIVERSITY COLLEGE CARDIFF CONSULTANTS LIMITED, priority 2022, published 2026).

Protein sequences, listed by entry. Tags and fused reporters are not part of them. Residues count along the entry.
UniProt Q9BXM7, 78-581: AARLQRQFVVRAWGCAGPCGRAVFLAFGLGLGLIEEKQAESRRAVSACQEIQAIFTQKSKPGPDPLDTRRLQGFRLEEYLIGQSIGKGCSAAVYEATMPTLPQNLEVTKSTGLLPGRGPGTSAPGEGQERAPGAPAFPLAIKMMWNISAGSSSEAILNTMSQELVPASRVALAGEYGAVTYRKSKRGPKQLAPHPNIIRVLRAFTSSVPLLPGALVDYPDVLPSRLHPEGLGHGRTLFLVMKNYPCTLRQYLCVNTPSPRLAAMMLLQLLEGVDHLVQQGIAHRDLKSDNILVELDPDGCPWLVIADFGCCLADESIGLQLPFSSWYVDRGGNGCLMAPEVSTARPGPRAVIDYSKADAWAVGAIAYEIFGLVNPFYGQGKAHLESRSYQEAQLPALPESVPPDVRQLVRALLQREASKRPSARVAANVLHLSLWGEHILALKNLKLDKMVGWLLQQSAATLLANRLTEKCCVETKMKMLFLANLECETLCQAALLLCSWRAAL

Target: T1, PINK1 (Homo sapiens, UniProt Q9BXM7)
T1 construct: HeLa cells, which express PINK1 endogenously; endogenous in cells; host or cells: HeLa cells transiently transfected with parkin
Assay: PINK1 activation in cells judged by parkin Ser65 phosphorylation (parkin-transfected HeLa cells)
Assay type: cell-based
Settings: 10 μM CCCP, 3 h
Procedure: Both HeLa and parkin-overexpressed HeLa cells were maintained in DMEM high glucose (Gibco), 10% FBS (Sigma-Aldrich) at 37° C. with 5% CO2. For experiments, cells were counted and seeded into a range of culture plates, depending on the experiment, cell counting was done using the Cellometer Auto T4 with TrypanBlue (Gibco). […] Alternatively, HeLa cells were seeded in well plates and then transfected with […] of parkin cDNA using the PEI method once the plated cells reached 60% confluency. After 6 hours, the media was changed. Sub-culturing was done when the cells reached ˜90% confluency.
Cell culture with 70-80% confluency was lysed as follows: cells were washed with Phosphate Buffer Saline (PBS) (Sigma). […]
The cells were scrapped and transferred to the microtube and eventually spun down at 12,000 rpm for 15 minutes at 4° C. […] Protein concentration was measured using Bradford Assay. […]

## carbonyl cyanide m-chlorophenyl-hydrazine [CCCP, reference compound]
  activation of PINK1 as judged by parkin Ser65 phosphorylation, CCCP control: prominent activation of PINK1
